## Measured affinities in a library of Ab-95 light chain variants

All variants were tested on one target, the spike HR2 peptide PDVDLGDISGINAS (SARS-CoV-2).

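AAYL52 was designed without a model: most single CDR substitutions and a random sample of double and triple ones. The assay is AlphaSeq: two haploid yeast populations carry antibody and antigen on their surface. Mating (16 h, 30 °C) was followed by selection of diploids and sequencing of their barcodes. Read counts were normalised to the haploid input and turned into Kd by a linear fit to BCL2-family pairs of known affinity, for each replicate. There are three technical replicates.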

Parent scFv Ab-95: VH joined to VL by a (GGGGS)3 linker. Changes lie in the light chain CDRs alone.
VH: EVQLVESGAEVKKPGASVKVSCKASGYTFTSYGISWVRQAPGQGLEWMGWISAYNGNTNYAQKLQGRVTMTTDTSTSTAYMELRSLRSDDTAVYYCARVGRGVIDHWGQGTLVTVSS
VL: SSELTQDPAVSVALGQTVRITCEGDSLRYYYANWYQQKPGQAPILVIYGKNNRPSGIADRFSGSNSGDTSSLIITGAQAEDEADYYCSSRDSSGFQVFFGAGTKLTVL

The whole VL of each variant is written out. Scale: log10 of Kd in nM, estimated from mating counts; low values are strong binders. "n.d." marks a missing value. The strain was present, yet no cells mated with the target were sequenced in that replicate, which points to weak or no binding. Empty control strains, which show no peptide, gave a signal in 28% of pairings with library AAYL52; the median was 3.91 and 95% of these signals were weaker than 2.90. No background was subtracted. The control count says in how many pairings with the empty strains this scFv gave a signal, with their mean in brackets.

VL,"log10 Kd, replicates",control signals
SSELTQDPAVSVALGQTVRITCEGASLRYYYANWYQQKPGQAPILVIYGKNNQPSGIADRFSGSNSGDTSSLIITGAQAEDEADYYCSSRDSSIFQVFFGAGTKLTVL,3.93 / 4.09 / n.d.,3 of 9 (3.93)
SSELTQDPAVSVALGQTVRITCIGDSLRYYYAFWYQQKPGQAPILVIYGKNNRPSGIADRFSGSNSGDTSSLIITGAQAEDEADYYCWSRDSSGFQVFFGAGTKLTVL,5.03 / n.d. / n.d.,4 of 9 (4.45)
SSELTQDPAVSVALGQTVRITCEGDSLRYYYYNWYQQKPGQAPILVIYIKNNRPSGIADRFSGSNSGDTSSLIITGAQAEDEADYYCSSRDSLGFQVFFGAGTKLTVL,n.d. / n.d. / 4.16,4 of 9 (3.70)
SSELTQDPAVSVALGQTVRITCEGDSLNYYYANWYQQKPGQAPILVIYGKNNRPHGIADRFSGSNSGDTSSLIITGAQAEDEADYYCSSRDSQGFQVFFGAGTKLTVL,2.91 / 2.62 / 3.22,2 of 9 (4.09)
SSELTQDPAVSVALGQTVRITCEGDSLRYYYANWYQQKPGQAPILVIYGWNMRPSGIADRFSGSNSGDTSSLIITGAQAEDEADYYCSSRDSSGFQHFFGAGTKLTVL,4.52 / 4.39 / 3.74,2 of 9 (4.33)
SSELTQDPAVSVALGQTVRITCEGDSLRYYYANWYQQKPGQAPILVIYGKNNRPEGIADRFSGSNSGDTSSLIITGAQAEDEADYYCSSRDSSLFQVFFGAGTKLTVL,n.d. / n.d. / n.d.,1 of 9 (2.89)
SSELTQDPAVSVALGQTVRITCEGDSLRYYYANWYQQKPGQAPILVIYGKNNRPSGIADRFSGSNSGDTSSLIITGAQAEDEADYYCSARDSSGFQVFFGAGTKLTVL,1.45 / 1.53 / 1.16,1 of 9 (3.67)
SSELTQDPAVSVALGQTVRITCEGDSLRYYYANWYQQKPGQAPILVIYGKNQRPSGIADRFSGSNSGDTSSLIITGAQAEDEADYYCSSRDSPGFQAFFGAGTKLTVL,3.27 / 3.00 / n.d.,6 of 9 (3.51)
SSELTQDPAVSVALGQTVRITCEGDSLRYYHVNWYQQKPGQAPILVIYGHNNRPSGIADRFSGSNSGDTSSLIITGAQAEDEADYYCSSRDSSGFQVFFGAGTKLTVL,2.98 / 2.56 / 2.34,3 of 9 (4.44)
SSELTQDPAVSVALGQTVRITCEGDSCRYYYVNWYQQKPGQAPILVIYRKNNRPSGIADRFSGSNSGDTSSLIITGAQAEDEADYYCSSRDSSGFQVFFGAGTKLTVL,3.28 / 3.03 / 3.01,3 of 9 (4.63)
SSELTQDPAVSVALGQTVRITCEGDSLRYYYANWYQQKPGQAPILVIYGDNNRPLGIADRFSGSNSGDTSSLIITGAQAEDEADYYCSSRDSSGFKVFFGAGTKLTVL,2.87 / 2.63 / 3.17,0 of 9
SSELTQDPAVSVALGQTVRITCEGDSLRYYYANWYQQKPGQAPILVIYGKNNRPSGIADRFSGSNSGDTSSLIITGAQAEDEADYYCSSIDYSGFQTFFGAGTKLTVL,1.89 / 2.37 / n.d.,3 of 9 (3.77)
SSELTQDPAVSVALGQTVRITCEGDSLRCYYANWYQQKPGQAPILVIYGKNNRPSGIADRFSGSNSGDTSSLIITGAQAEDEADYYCSSRDSPGFQVCFGAGTKLTVL,n.d. / 5.99 / n.d.,2 of 9 (4.97)
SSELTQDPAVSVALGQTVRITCEGDSLRYVGANWYQQKPGQAPILVIYGKLNRPSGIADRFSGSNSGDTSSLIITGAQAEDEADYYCSSRDSSGFQVFFGAGTKLTVL,3.13 / 3.02 / 3.76,2 of 9 (3.78)
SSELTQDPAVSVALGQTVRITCEGDSLRYYYANWYQQKPGQAPILVIYGKNNRPSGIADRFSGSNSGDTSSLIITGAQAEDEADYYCSSRDSNGVQVFFGAGTKLTVL,3.25 / 2.38 / n.d.,3 of 9 (3.71)
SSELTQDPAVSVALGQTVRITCEGDSLRYYYANWYQQKPGQAPILVIYGTTNIPSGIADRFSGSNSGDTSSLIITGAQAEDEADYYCSSRDSSGFQVFFGAGTKLTVL,4.09 / n.d. / n.d.,4 of 9 (4.41)
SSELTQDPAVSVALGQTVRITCEGDTLRYYYANWYQQKPGQAPILVIYGKNNRDSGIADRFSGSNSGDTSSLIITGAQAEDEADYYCSSRDSSGFQVFFGAGTKLTVL,3.91 / n.d. / 2.78,0 of 9
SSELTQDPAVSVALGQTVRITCEGDCLRYYYANWYQQKPGQAPILVIYGKNNRPSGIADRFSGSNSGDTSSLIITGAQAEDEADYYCSWRDSSRFQVFFGAGTKLTVL,n.d. / n.d. / n.d.,0 of 9
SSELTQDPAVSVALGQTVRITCEGDSLRYYYANWYQQKPGQAPILVIYEKNNRPSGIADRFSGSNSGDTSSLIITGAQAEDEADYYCSSRDSEGFQVFFGAGTKLTVL,4.84 / n.d. / n.d.,2 of 9 (3.51)
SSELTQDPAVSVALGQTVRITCEGDSLRYYYANWYQQKPGQAPILVIYGKNNRSSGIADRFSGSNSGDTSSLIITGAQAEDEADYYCSHRDSSGFQHFFGAGTKLTVL,2.98 / 2.97 / 2.85,3 of 9 (3.71)
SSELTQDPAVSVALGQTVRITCEGDSLWYYYANWYQQKPGQAPILVIYGKNNRPLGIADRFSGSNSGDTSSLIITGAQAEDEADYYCSSRVSSGFQVFFGAGTKLTVL,3.84 / 5.35 / 3.17,3 of 9 (3.93)

3 of these entries, quoted again:

VL,"log10 Kd, replicates",control signals
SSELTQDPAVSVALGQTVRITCEGDSLRYYYANWYQQKPGQAPILVIYGKNQRPSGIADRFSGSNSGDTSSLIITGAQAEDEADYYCSSRDSPGFQAFFGAGTKLTVL,3.27 / 3.00 / n.d.,6 of 9 (3.51)
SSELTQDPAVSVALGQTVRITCEGDSLRYYYANWYQQKPGQAPILVIYGKNNRPSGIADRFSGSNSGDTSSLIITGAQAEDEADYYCSSRDSNGVQVFFGAGTKLTVL,3.25 / 2.38 / n.d.,3 of 9 (3.71)
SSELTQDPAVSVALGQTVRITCEGDSLWYYYANWYQQKPGQAPILVIYGKNNRPLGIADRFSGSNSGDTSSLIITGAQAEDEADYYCSSRVSSGFQVFFGAGTKLTVL,3.84 / 5.35 / 3.17,3 of 9 (3.93)

For reference, the parent read 2.31 as the reference entry and 2.25 as a member of this library.

Source: Engelhart et al. 2022 (doi:10.1038/s41597-022-01779-4), MIT Lincoln Laboratory and A-Alpha Bio; data file from the FLAb repository.